Ab-95 light chain CDR variants: yeast mating affinities

All variants were tested on one target, the spike HR2 peptide PDVDLGDISGINAS (SARS-CoV-2).

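Library AAYL52 holds single substitutions and randomly drawn double and triple substitutions in the CDRs. AlphaSeq pools MATa yeast showing the antibodies with MATalpha yeast showing the peptide. After mating in shaken culture at 30 °C for 16 h, diploids were selected and their barcode pairs sequenced. Scores were corrected for input abundance and mapped to Kd with protein pairs of known affinity run in the same pool. Each pool was mated in three replicate cultures.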

Parent scFv Ab-95: VH joined to VL by a 15-residue (Gly4Ser)3 linker. Changes lie in the light chain CDRs alone.
VH: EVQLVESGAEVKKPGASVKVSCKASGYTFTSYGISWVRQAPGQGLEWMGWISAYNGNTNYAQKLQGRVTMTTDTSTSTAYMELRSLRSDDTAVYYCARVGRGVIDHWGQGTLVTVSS
VL: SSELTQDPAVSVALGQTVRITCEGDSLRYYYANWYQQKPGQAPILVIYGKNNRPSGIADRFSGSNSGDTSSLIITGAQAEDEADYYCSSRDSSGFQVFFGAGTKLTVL

Substitutions are numbered in sequence along the VL above, starting at 1 (not Kabat).
Numbers give log10(Kd / nM), so 0 is 1 nM and 3 is 1 µM. Smaller is tighter.
The mean shown is taken over the replicates in which the pair was detected.
An entry "nd" has no value in the source: the pair was not observed among the diploids in that replicate. This suggests poor binding but is not conclusive.
Three control strains display no target. For library AAYL52, 28% of the pairings with them gave a signal, with a median of 3.91 and one signal in twenty below 2.90, so weak values seen in few replicates may be background. Also given: how often the same scFv was detected with the empty control strains.
Parent in this assay: reference entry 2.31, copy in this library 2.25.

The variant R28G A32Q N52L gave 3.45, 2.99, 4.50 (mean 3.65; controls 3 of 9).
The variant R28K P54G V97R gave nd, 2.75, nd (controls 1 of 9).
The variant Y30F S92D F98S gave 3.33, 2.95, 3.46 (mean 3.24; controls 3 of 9).
The variant L27T F95C F98C gave nd, nd, nd (controls 4 of 9).
The variant R53P S89I gave 4.49, nd, 4.50 (mean 4.49; controls 5 of 9).
The variant R53A S88Q S89Q gave nd, nd, nd (controls 2 of 9).
The variant Y29W G94T V97F gave 2.97, 3.17, 2.16 (mean 2.76; controls 2 of 9).
The variant Y29D G94N F95P gave 2.60, 2.27, 2.37 (mean 2.41; controls 4 of 9).
The variant Y30R S93A G94C gave 2.71, 2.75, 2.64 (mean 2.70; controls 6 of 9).
The variant A32L G49E S89A gave nd, 3.87, nd (controls 5 of 9).
The variant L27P D91M S93K gave 5.73, 5.06, 3.74 (mean 4.85; controls 2 of 9).
The variant G24T N52I R53W gave nd, 5.21, nd (controls 1 of 9).
The variant K50R S92H S93E gave 2.54, 2.92, 2.05 (mean 2.51; controls 0 of 9).
The variant R28T A32L P54F gave nd, 4.86, nd (controls 3 of 9).
The variant G24T S55L S89C gave nd, 2.47, nd (controls 1 of 9).
The variant S26V G49N gave nd, nd, nd (controls 4 of 9).
The variant N52G S92F gave 3.71, 3.07, 3.28 (mean 3.36; controls 2 of 9).
The variant Y31I S88Y V97Q gave nd, nd, 4.16 (controls 3 of 9).
The variant R90L D91I S92P gave 3.38, 2.65, 2.20 (mean 2.75; controls 4 of 9).
The variant L27M N33H S93W gave 3.64, nd, 3.65 (mean 3.64; controls 6 of 9).
The variant D25G Y31V N52I gave nd, nd, nd (controls 0 of 9).
The variant E23Q Y31E S93F gave 2.07, 2.33, 1.84 (mean 2.08; controls 1 of 9).
The variant L27M N33V S93W gave 3.74, nd, nd (controls 3 of 9).
The variant A32L S93M G94L gave 3.11, 4.38, nd (mean 3.75; controls 3 of 9).
The variant S92Y G94W Q96W gave nd, 4.58, 2.79 (mean 3.68; controls 5 of 9).
The variant R90I S92P S93D gave 2.24, 2.42, 2.76 (mean 2.47; controls 2 of 9).
The variant R28M N51E P54E gave 3.77, nd, nd (controls 3 of 9).
The variant A32H S88P F95M gave 5.60, 4.78, 3.44 (mean 4.60; controls 4 of 9).
The variant S26I R53G G94W gave 4.29, nd, nd (controls 2 of 9).
The variant L27A R53A D91E gave 5.69, nd, nd (controls 4 of 9).
The variant N33P G49H Q96G gave nd, nd, 3.79 (controls 1 of 9).
The variant S92A S93F F95K gave 2.01, 1.85, 1.70 (mean 1.85; controls 5 of 9).
The variant S26Q L27S R90S gave 5.16, 3.33, nd (mean 4.25; controls 2 of 9).
The variant Y29A A32N F98T gave 4.48, nd, nd (controls 2 of 9).
The variant E23M Y31D N51T gave 1.47, 1.31, 0.95 (mean 1.24; controls 5 of 9).
The variant N51R V97M F98Q gave 5.84, nd, nd (controls 2 of 9).
The variant Y30E N33I G49I gave nd, nd, nd (controls 3 of 9).
The variant Y29A Y31V S89N gave nd, nd, nd (controls 4 of 9).
The variant Y30E S55W V97Q gave 1.56, 1.40, 0.87 (mean 1.28; controls 3 of 9).
The variant R28T A32F R53V gave 4.61, nd, nd (controls 2 of 9).
The variant P54V S55D S89T gave 2.25, 2.16, 2.16 (mean 2.19; controls 1 of 9).
The variant Y29F Y30L N51M gave 4.04, 3.62, nd (mean 3.83; controls 3 of 9).
The variant G24F G49T D91E gave 3.41, 3.19, 3.53 (mean 3.38; controls 2 of 9).
The variant L27V R28V D91A gave nd, nd, nd (controls 0 of 9).
The variant S26E P54C R90D gave 5.51, nd, nd (controls 3 of 9).
The variant R28N V97R gave 2.52, 3.36, 2.80 (mean 2.89; controls 2 of 9).
The variant G24P N52T F98Q gave 2.81, 3.02, 3.03 (mean 2.95; controls 5 of 9).
The variant S88V F98C gave 3.79, 3.68, 2.44 (mean 3.31; controls 0 of 9).
The variant Y31E K50H N52W gave 1.67, 1.63, 1.43 (mean 1.58; controls 2 of 9).

The 6 strongest on average among those seen in every replicate, once more:

changes,"replicates, log10 nM","mean, log10 nM",signal with controls
E23M Y31D N51T,"1.47, 1.31, 0.95",1.24,5/9
Y30E S55W V97Q,"1.56, 1.40, 0.87",1.28,3/9
Y31E K50H N52W,"1.67, 1.63, 1.43",1.58,2/9
S92A S93F F95K,"2.01, 1.85, 1.70",1.85,5/9
E23Q Y31E S93F,"2.07, 2.33, 1.84",2.08,1/9
P54V S55D S89T,"2.25, 2.16, 2.16",2.19,1/9

Data: MIT Lincoln Laboratory AlphaSeq set, Engelhart et al. 2022, doi:10.1038/s41597-022-01779-4, as distributed in FLAb.